Literature values in publication PMC8900292.

Sequences of proteins named here, by UniProt entry; tags and fusion partners are left off.
UniProt Q16623, whole entry: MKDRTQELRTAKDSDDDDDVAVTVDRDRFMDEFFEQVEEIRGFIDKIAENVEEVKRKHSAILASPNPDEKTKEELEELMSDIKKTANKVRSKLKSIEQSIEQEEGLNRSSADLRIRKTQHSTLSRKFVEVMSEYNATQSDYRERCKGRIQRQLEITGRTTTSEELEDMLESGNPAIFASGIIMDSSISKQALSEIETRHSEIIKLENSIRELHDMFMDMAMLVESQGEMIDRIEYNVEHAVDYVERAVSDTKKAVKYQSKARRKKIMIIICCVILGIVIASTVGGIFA

Target: Syntaxin-1 (UniProt Q16623)

For Munc18-1 (from UniProt P61764), the Kd is given as 1 nM.
